The target of this experiment is S1P1 human receptor (Homo sapiens (Human), UniProt P21453). As to the kind of experiment: S1P1 [35S]-GTPgamaS binding assay (agonist activity). In kind it is biochemical. Here is the method: Selected Compounds of the Examples were evaluated at Millipore Corporation, USA, using S1P1 receptor; [^35S]-GTPgamaS binding assay. A [^35S]-GTPgamaS binding assay at Millipore was conducted by GPCR Profiler™ Custom Service Laboratory, Temecula, Calif., Millipore, Inc. to monitor dose-dependent agonist selectivity for selected Examples against the S1P1 receptors. The assay was completed with sample compounds subjected to an eight-point, four-fold dose response curve with starting concentration of 10 μM. Selectivity was determined upon initial addition of compounds followed by a 30 minute incubation at 30° C. Following compound incubation, bounded [^35S]-GTPgamaS was determined by filtration and scintillation counting.
Independently, selected compounds were evaluated for S1P1 and S1P3 agonistic activity. The S1P1 assay system was GTPgama-S35 binding in membranes from CHO K1 cells, expressing S1P1 human receptor. The S1P3 assay system was calcium mobilization in CHO K1 cells expressing S1P3 human receptor. There was no significant background response to S1P in the CHO K1 cells with either assay. Compounds were tested initially at a concentration of 10 μM.

Amino acid sequences for entries named in this document (tags omitted).
UniProt P21453, whole entry: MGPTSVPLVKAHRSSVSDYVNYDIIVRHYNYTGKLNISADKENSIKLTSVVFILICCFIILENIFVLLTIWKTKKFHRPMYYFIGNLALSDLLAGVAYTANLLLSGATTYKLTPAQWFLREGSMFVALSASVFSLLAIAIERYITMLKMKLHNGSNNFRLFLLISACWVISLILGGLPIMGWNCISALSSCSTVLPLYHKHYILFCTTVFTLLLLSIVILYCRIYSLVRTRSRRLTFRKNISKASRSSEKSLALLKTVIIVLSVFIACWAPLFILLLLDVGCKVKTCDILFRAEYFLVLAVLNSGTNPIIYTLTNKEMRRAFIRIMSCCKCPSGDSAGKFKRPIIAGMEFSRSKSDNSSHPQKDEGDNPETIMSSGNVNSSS

`CCCCCCCCc1ccc(CCC(N)(CO)CO)cc1` [FTY 720, 2-amino-2-(2-[4-octylphenyl]ethyl)-1,3-propanediol, reference compound] had an EC50 of 2.64 µM.

What is called EC50 is the concentration giving half of the maximal effect. Read a high EC50 as a need for much substance.

(Values after patent publication US9181182B2, “S1P receptors modulators” (Akaal Pharma PTY LTD, priority 2008, dated 2015).)
